Earlier results as cited in patent publication US11197933B2, “Polysubunit opioid prodrugs resistant to overdose and abuse” (Elysium Therapeutics, Inc., priority 2017, dated 2021).

Test system: opioid receptors
Conditions: cited from earlier work

SMILES: C=CCN1CC[C@]23c4c5ccc(O)c4O[C@H]2C(=O)CC[C@@]3(O)[C@H]1C5 [naloxone]
- Effect on morphine-like opioid agonists (0.4-0.8 mg intramuscularly or intravenously, in man): prevent or reverse the effects of morphine-like opioid agonists
- Block of the effects of 25 mg of heroin (one mg administered intravenously): completely block the effects of 25 mg of heroin
